Target: SP-A binding protein on type II cell membranes (SP-A receptor) of rat alveolar epithelial type II cells (rat)

SP-A purified from rat lung surfactant (from UniProt P08427) (ligand)
% Lung Surfactant Secretion in 2 hours (% Lung Surfactant Secretion in 2 hours): 0.9

Reference: patent US6051224, “Compositions and methods for targeting cells and modulating pulmonary surfactant secretion” (Thomas Jefferson University, dated 2000)
